Experimental findings from ChEMBL document CHEMBL3102716, “High-throughput virtual screening identifies novel N'-(1-phenylethylidene)-benzohydrazides as potent, specific, and reversible LSD1 inhibitors” (J Med Chem, 2013) are described below.

In general, IC50 refers to the concentration that inhibits the measured activity by half. Higher therefore signals weaker potency.

One experiment relates to PC-3. The experiment is classed as functional, cell-based. The conditions noted are these: Homo sapiens, PC-3, 96 h.
A further experiment relates to MDA-MB-231. The format is functional, cell-based. The conditions noted are these: Homo sapiens, MDA-MB-231, 96 h.

`C/C(=N\NC(=O)c1cccc(S(=O)(=O)N2CCOCC2)c1)c1cc(Cl)ccc1O`: the IC50 with PC-3 amounted to 2.16 µM; with MDA-MB-231 it was 1.04 µM.
